Publication PMC5585256 (Scientific Reports, 2017)
Like-named read-outs stand apart in the source and are kept apart here. Marks after values point to notes of the source that are not given here.

Protein sequences, listed by entry. Tags and fused reporters are not part of them. Residues count along the entry.
UniProt P06276, 29-602 A227S/F255A/S315G/A356W/Y360G: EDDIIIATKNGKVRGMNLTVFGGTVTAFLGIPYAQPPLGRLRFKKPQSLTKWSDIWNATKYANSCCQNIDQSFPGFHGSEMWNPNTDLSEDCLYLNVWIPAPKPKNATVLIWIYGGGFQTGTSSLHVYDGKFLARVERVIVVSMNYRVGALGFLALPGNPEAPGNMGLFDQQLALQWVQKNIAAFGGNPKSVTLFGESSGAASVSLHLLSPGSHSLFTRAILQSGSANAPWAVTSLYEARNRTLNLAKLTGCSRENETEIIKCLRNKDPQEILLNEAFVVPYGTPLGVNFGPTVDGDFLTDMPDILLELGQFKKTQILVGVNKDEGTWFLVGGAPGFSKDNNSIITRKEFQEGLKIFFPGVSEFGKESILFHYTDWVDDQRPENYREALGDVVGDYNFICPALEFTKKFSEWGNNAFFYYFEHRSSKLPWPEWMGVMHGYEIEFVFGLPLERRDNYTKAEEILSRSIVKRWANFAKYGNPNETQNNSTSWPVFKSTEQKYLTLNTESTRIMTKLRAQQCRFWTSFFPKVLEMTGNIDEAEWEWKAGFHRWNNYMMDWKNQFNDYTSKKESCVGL
UniProt P06276, 29-602 F255A/S315G/A356W/Y360G: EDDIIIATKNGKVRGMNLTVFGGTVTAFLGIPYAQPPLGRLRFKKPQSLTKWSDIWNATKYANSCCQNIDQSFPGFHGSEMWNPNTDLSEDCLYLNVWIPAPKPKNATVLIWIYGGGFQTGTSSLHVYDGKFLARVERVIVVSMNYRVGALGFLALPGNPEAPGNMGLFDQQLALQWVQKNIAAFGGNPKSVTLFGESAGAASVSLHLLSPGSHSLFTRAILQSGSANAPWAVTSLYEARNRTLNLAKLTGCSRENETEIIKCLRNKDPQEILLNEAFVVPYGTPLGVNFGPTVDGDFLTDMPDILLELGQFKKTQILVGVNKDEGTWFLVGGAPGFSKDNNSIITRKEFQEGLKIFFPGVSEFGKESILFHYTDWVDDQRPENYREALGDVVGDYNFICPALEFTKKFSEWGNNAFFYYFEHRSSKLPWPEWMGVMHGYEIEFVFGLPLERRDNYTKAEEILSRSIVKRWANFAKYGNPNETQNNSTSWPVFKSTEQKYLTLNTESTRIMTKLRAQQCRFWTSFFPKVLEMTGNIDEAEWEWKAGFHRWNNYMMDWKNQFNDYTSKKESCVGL
UniProt P06276, 29-602: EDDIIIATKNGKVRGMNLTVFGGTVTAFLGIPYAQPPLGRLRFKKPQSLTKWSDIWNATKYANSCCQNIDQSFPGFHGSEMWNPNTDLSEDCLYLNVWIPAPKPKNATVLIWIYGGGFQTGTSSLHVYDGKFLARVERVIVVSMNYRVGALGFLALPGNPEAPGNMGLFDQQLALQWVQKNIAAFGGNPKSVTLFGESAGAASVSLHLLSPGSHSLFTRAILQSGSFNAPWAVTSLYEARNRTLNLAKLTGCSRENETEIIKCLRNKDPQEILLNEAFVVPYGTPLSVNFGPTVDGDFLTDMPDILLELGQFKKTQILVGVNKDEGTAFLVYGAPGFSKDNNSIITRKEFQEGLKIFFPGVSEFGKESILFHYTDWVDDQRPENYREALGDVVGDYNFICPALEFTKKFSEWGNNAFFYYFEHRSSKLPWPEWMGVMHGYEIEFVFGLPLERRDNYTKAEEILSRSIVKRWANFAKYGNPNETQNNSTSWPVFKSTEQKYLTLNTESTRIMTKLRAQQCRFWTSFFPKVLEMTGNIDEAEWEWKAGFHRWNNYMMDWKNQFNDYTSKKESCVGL
UniProt P06276, 29-602 A227S/S315G/A356W/Y360G: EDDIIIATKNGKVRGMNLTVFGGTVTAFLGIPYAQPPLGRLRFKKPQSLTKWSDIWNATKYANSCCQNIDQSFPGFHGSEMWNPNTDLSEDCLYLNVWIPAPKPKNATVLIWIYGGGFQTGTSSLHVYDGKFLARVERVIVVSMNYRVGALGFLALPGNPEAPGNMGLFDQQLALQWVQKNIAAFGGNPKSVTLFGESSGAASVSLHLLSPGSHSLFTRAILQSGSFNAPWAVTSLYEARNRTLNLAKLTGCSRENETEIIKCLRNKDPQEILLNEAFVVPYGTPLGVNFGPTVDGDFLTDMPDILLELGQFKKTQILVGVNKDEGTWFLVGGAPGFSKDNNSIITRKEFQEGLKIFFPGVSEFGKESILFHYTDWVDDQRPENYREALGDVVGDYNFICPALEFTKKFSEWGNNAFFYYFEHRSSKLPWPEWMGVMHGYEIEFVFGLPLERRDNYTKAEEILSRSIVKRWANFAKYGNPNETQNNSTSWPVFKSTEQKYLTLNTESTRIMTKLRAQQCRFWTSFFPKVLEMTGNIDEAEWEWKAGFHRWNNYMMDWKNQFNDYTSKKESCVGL
UniProt P06276, 29-602 F255A/S315G/A356W/Y360A: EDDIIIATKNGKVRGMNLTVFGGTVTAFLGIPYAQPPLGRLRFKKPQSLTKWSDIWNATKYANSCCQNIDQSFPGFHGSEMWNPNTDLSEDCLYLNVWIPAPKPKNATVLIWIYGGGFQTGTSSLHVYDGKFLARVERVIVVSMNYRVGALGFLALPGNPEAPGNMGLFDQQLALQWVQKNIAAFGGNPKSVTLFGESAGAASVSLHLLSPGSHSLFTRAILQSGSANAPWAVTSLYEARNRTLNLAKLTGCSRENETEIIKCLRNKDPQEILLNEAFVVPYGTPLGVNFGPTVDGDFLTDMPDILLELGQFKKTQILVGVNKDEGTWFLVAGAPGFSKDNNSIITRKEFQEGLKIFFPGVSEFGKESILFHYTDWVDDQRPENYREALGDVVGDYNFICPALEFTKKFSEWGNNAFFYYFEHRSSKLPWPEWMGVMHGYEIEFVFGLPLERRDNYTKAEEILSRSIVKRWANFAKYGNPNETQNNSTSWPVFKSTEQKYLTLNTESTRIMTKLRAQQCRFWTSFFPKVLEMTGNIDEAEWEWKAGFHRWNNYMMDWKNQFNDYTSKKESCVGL

Legend:
Assay type in all cases: biochemical
[1] = target: T1, pBChEV4 (A199S/F227A/S287G/A328W/Y332G) (Homo sapiens, UniProt P06276, A227S/A356W/F255A/S315G/Y360G); test: Inhibition of BTC hydrolysis activity of pBChEV4
T1 construct: hexahistidine (C); barley alpha-amylase signal peptide (N); made in house; host or cells: Nicotiana benthamiana (transient, MagnICON/TMV vector)
Protocol: (§1) To this end, BTC hydrolysis was analyzed following a 30-minute incubation with the inhibitors.
(§2) The four inhibitors were purchased from Sigma (St Louis, MO).
(§3) Preparations of BChE and variants thereof were incubated in 96-well plate format with indicated concentrations of the inhibitors for 30 min at room temperature followed by activity measurements based on modified Ellman assay using 1 mM BTC as the substrate. IC50 values were determined by non-linear regression (GraphPad Prism) fit according to Equation (4).

[2] = target: T2, pBChEV5 (F227A/S287G/A328W/Y332G) (Homo sapiens, UniProt P06276, A356W/F255A/S315G/Y360G); test: Inhibition of BTC hydrolysis activity of pBChEV5
T2 construct: hexahistidine (C); barley alpha-amylase signal peptide (N); made in house; host or cells: Nicotiana benthamiana (transient, MagnICON/TMV vector)
Protocol: as §1, §2, §3

[3] = target: T3, WT pBChE (plant-derived human butyrylcholinesterase) (Homo sapiens, UniProt P06276); test: Inhibition of BTC hydrolysis activity of WT pBChE
T3 construct: barley alpha-amylase signal peptide (N); made in house; host or cells: Nicotiana benthamiana (transient, MagnICON/TMV vector, Agrobacterium infiltration)
Protocol: as §1, §2, §3

[4] = target: T4, WT hBChE (human plasma-derived butyrylcholinesterase) (Homo sapiens, UniProt P06276); test: Inhibition of BTC hydrolysis activity of WT hBChE
T4 construct: we first compared WT human plasma-derived (hBChE) to pBChE; from tissue; host or cells: human plasma
Protocol: as §1, §2, §3

[5] = target: T5, pBChEV3 (A199S/S287G/A328W/Y332G) (Homo sapiens, UniProt P06276, A227S/A356W/S315G/Y360G); test: Inhibition of BTC hydrolysis activity of pBChEV3
T5 construct: hexahistidine (C); barley alpha-amylase signal peptide (N); made in house; host or cells: Nicotiana benthamiana (transient, MagnICON/TMV vector)
Protocol: as §1, §2, §3

[6] = target: T6, pBChEV2 (F227A/S287G/A328W/Y332A) (Homo sapiens, UniProt P06276, A356W/F255A/S315G/Y360A); test: Inhibition of BTC hydrolysis activity of pBChEV2
T6 construct: hexahistidine (C); barley alpha-amylase signal peptide (N); made in house; host or cells: Nicotiana benthamiana (transient, MagnICON/TMV vector)
Protocol: as §1, §2, §3

[7] = log IC50 ± SEM, 30 min incubation, 1 mM BTC, enzyme ~5 mU

C=CC[N+](C)(C)c1ccc(CCC(=O)CCc2ccc([N+](C)(C)CC=C)cc2)cc1.[Br-].[Br-] [BW284c51, [4-[5-[4-[dimethyl(prop-2-enyl)azaniumyl]phenyl]-3-oxopentyl]phenyl]-dimethyl-prop-2-enylazanium;dibromide]
Log IC50 [1, 7]: −4.62 ± 0.09 | Log IC50 [2, 7]: −3.31 ± 0.11 | Fold increase in sensitivity relative to WT pBChE ([2]; pBChEV5 vs WT pBChE): (1)^* fold | Fold increase in sensitivity relative to WT pBChE ([3]; WT pBChE (reference)): (1) fold | Log IC50 [3, 7]: −3.55 ± 0.05 | Fold increase in sensitivity relative to WT pBChE ([4]; WT hBChE vs WT pBChE): (2)^**** fold | Log IC50 [4, 7]: −3.86 ± 0.03 | Log IC50 [5, 7]: −4.16 ± 0.10 | Log IC50 [6, 7]: −3.82 ± 0.11 | Fold increase in sensitivity relative to WT pBChE ([6]; pBChEV2 vs WT pBChE): (2)^* fold

CCOP(=O)(OCC)Oc1ccc([N+](=O)[O-])cc1 [Paraoxon, diethyl (4-nitrophenyl) phosphate]
IC50 [1]: 1.29 nM | IC50 [2]: 0.17 nM | IC50 [3]: 7.76 nM | IC50 [4]: 9.12 nM | IC50 [5]: 2.24 nM | IC50 [6]: 0.204 nM

CC(C)NP(=O)(NC(C)C)OP(=O)(NC(C)C)NC(C)C [Iso-OMPA, N-[bis(propan-2-ylamino)phosphoryloxy-(propan-2-ylamino)phosphoryl]propan-2-amine]
IC50 ([1]; read-out: Log IC50 (converted)): 13500 nM | IC50 ([2]; read-out: Log IC50 (converted)): 407 nM | IC50 ([3]; read-out: Log IC50 (converted)): 17000 nM | IC50 ([4]; read-out: Log IC50 (converted)): 22400 nM | IC50 ([5]; read-out: Log IC50 (converted)): 35500 nM | IC50 ([6]; read-out: Log IC50 (converted)): 355 nM
